Data as given in patent US10363323B2, “Hydrophobic modified peptides for liver specific diagnosis” (RUPRECHT-KARLS-UNIVERSITAT HEIDELBERG, priority 2011, dated 2019).

Tested on: liver of a WAG/Rji rat
Details: in vivo
Description: The rats were orthopically injected with 1×10^6 syngenic colon carcinoma cells (CC531 cells) 10 days prior to the measurements. At the day of measurement the rats received the peptide in a concentration of 400 nmol/kg body weight. During the experiments the rats were anaesthetised by isoflurane and kept at 37° C.

Fluodeoxyglucose(^18F) [^18F-FDG, reference compound]
enrichment of the counterstain in organs (PET image): enriched in organs consuming high amounts of glucose
